# Reference: ChEMBL document CHEMBL1144321, “Synthesis and evaluation of novel peripherally restricted kappa-opioid receptor agonists” (Bioorg Med Chem Lett, 2005)
# Amino acid sequences for entries named in this document (tags omitted). A change or cut given only in a name is not applied to a line headed by its entry.
# UniProt P41145: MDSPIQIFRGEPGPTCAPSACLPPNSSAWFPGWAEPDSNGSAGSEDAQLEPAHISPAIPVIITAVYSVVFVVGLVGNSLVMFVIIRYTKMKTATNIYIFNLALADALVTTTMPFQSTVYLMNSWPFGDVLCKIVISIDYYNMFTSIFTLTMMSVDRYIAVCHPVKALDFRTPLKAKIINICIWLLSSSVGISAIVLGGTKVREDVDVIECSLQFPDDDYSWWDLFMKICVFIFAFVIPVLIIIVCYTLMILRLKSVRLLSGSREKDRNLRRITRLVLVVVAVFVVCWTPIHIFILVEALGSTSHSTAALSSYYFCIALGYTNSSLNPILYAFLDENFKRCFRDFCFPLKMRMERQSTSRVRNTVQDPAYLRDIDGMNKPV
# UniProt P35372, whole entry, looked up: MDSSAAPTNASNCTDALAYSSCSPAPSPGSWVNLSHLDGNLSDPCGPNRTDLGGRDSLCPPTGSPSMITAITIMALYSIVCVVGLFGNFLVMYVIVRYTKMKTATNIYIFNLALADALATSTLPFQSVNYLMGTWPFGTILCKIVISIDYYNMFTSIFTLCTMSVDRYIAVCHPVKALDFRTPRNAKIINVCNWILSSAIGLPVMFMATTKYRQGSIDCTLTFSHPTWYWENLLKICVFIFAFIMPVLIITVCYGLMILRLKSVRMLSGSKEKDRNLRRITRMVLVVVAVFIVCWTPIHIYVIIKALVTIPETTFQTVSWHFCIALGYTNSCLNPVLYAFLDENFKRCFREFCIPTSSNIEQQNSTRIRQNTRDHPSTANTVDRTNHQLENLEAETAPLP
# UniProt P41143, whole entry, looked up: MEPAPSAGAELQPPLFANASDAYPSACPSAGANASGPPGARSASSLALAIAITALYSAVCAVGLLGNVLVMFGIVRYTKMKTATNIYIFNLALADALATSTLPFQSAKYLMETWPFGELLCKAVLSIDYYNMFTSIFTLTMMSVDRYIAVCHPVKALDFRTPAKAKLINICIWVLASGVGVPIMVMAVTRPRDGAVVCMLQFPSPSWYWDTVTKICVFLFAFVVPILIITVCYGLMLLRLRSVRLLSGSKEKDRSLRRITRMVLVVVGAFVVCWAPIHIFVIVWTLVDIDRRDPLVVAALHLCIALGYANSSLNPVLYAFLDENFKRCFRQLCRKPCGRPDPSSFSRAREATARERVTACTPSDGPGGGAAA
# How the values were obtained:
# [1] = target: Opioid receptors; mu & kappa (Homo sapiens) (UniProt P41145+P35372); experiment: Selectivity ratio of inhibition of kappa opioid receptor to that of mu receptor was determined
# [2] = target: Opioid receptors; delta & kappa (Homo sapiens) (UniProt P41145+P41143); experiment: Selectivity ratio of inhibition of kappa opioid receptor to that of delta receptor was determined
compound,measurement,setting,value
CN(C(=O)Cc1ccc(C(F)(F)F)cc1)[C@H](CN1CCCC1)c1ccccc1,Ratio,[1],> 1000
same,Ratio,[2],> 1000
CN(C(=O)Cc1ccc(Cl)c(Cl)c1)C(CN1CCCC1)c1cccc(OCC(=O)O)c1 (stereo not drawn) [ICI-204448],Ratio,[1],162
same,Ratio,[2],69
CN(C(=O)Cc1ccc(C(F)(F)F)cc1)C(CN1CCCC1)c1cccc(OCC(=O)O)c1 (racemic),Ratio,[1],350
same,Ratio,[2],190
CN(C(=O)Cc1ccc(C(F)(F)F)cc1)[C@H](CN1CCCC1)c1cccc(NS(C)(=O)=O)c1,Ratio,[1],420
same,Ratio,[2],> 1000
CN(C(=O)Cc1ccc(C(F)(F)F)cc1)C(CN1CCCC1)c1cccc(OCC(=O)OC(C)(C)C)c1 (racemic),Ratio,[1],330
same,Ratio,[2],79
CN(C(=O)Cc1ccc(C(F)(F)F)cc1)[C@H](CN1CCCC1)c1cccc(NS(N)(=O)=O)c1,Ratio,[1],310
same,Ratio,[2],> 1000
CN(C(=O)Cc1ccc(C(F)(F)F)cc1)[C@H](CN1CCCC1)c1cccc(N(CC(=O)O)CC(=O)O)c1,Ratio,[1],> 43
same,Ratio,[2],> 43
CN(C(=O)Cc1ccc(C(F)(F)F)cc1)[C@H](CN1CCCC1)c1cccc(NC(=O)CCC(=O)O)c1,Ratio,[1],57
same,Ratio,[2],> 1000
CN(C(=O)Cc1ccc(C(F)(F)F)cc1)[C@H](CN1CCCC1)c1cccc([N+](=O)[O-])c1,Ratio,[1],920
same,Ratio,[2],> 1000
